Test results as given in patent US20130274233A1, “MODULATORS OF HEDGEHOG SIGNALING PATHWAY” (priority 2012, published 2013).

Legend:
Hh pathway activity = assay: Gli-luciferase reporter assay, Hh pathway activation by compound alone (NIH/3T3 cells); format: cell-based; details: FA at high concentrations
Method: ShhLightII cells and SmoM2/LightII cells were cultured and treated in 96 well assay plates (Corning) and incubated with Duo-Glo luciferase substrates (Promega) to sequentially measure firefly and renilla luciferase activity. Smo, or GFP, expression plasmids were co-transfected into 3T3 cells together with a Gli-responsive firefly reporter and a TK-renilla luciferase reporter contruct to monitor effects of Smo overexpression. Co-transfection of the two reporter constructs was conducted in assays measuring Hh pathway activity in suFU−/− cells. Wnt activity was measured following co-transfection of a Top-flash and renilla luciferase reporter. In both Hh and Wnt activity assays, renilla luciferase reporter activity, or mass of protein, was used to normalize expression values. Luciferase signal was read by TopCount NX Microplate Scintillation and Luminescence Counter (Perkin Elmer). Quantitative PCR probes for Ptch1, Gli1, and β-actin were purchased from Applied Biosystems. Reactions and measurements were performed using on an Applied Biosystems 7900HT at Harvard FAS Center of System Biology. β-actin was used to normalize Ptch1 and Gil1 values.

SmoM2 = assay: Gli-luciferase reporter induced by SmoM2::GFP overexpression (SmoM2/LightII cells); format: cell-based; details: SmoM2 versus wild-type Smo
Description: NIH/3T3 cells were maintained in DMEM containing 10% (v/v) calf serum, penicillin, streptomycin, and L-glutamine. HEK293, L, cos 7, and suFU−/− mouse embryonic fibroblast cells were maintained in DMEM containing 10% (v/v) fetal bovine serum, penicillin, streptomycin, and L-glutamine. Smo::EGFP, SmoM2::GFP, and Ivs::tagRFPT were cloned into pBabe to generate retroviral particles for infection. Smo::EGFP/Ivs::tagRFPT and SmoM2::GFP/Ivs::tagRFPT stable cell lines were generated through viral infection of NIH/3T3^12. A ShhLightII Gli reporter cell line was obtained from the American Type Culture Collection (ATCC) and used in luciferase reporter assays to measure Hh pathway activity. […]
Hh activity assays were performed using ShhLightll cells, Smo/Lightll cells, SmoM2/Lightll cells, and suFU−/− mouse embryonic fibroblasts. In the suFU−/− cells, Hh activity was measured after co-transfection with Gli driven firefly luciferase and TK-renilla luciferase reporters^41. Wnt activity was measured in 293 cells co-transfected with Top-flash and TK-renilla luciferase reporters^42. Cells were cultured and treated in 96 well assay plates (Corning) and incubated with Duo-Glo luciferase substrates (Promega) to measure firefly and renilla luciferase activity sequentially using a Top Count NX Microplate Scintillation and Luminescence Counter (Perkin Elmer). […]

CC1=C2C[C@H]3[C@@H](CC=C4C[C@@H](O)CC[C@@]43C)[C@@H]2CC[C@]12O[C@@H]1C[C@H](C)CN[C@H]1[C@H]2C [Cyc, Cyclopamine]
effect on FA induced activation of the Hh pathway (Hh pathway activity): blocked
IC50's for SmoM2 relative to IC50's for wildtype Smo (SmoM2): at least an order of magnitude higher
